# Test results reported in ChEMBL document CHEMBL3779891, “Protective effects of kaempferol against reactive oxygen species-induced hemolysis and its antiproliferative activity on human cancer cells” (Eur J Med Chem, 2016).
# Tested on: Hepatocyte
# Assay: Cytotoxicity against hepatocytes (unknown origin) assessed as reduction in cell survival at 25 to 100 ug/ml after 48 hrs by MTT assay
# Type: ADME, cell-based
smiles,measurement,value
O=c1c(O)c(-c2ccc(O)cc2)oc2cc(O)cc(O)c12 [KAEMPFEROL],Activity,Toxic
